Earlier results on one molecule are cited in paper PMC7867784 (Translational Lung Cancer Research, 2021).

The series concerns ALK-rearranged NSCLC. The following applies: 300 mg BID; cited from earlier work.

Turning to `CCc1cc2c(cc1N1CCC(N3CCOCC3)CC1)C(C)(C)c1[nH]c3cc(C#N)ccc3c1C2=O` [alectinib], the “median PFS” value is more than 27 months and the response rate is on record as 93.5%.
